Results as given in patent publication US9353152B2, “Induction of the mitochondrial permeability transition” (NewSouth Innovations Pty Limited, priority 2002, dated 2016).

Sequences of proteins named here, by UniProt entry; tags and fusion partners are left off. Residues count along the entry.
UniProt Q09073, 2-298 limits assumed: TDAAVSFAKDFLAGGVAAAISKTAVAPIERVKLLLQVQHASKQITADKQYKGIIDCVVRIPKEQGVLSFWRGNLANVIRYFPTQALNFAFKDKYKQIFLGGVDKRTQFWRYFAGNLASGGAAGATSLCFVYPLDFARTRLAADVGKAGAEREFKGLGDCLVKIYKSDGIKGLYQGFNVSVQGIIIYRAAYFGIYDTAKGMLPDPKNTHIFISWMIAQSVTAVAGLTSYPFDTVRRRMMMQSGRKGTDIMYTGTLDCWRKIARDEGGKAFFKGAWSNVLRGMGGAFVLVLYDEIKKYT

Experiments:
MPTP = MPTP (Rattus norvegicus, UniProt Q09073); test: MPTP induction screening (swelling of frozen rat liver mitochondria, 520 nm); type: biochemical; settings: Swelling Rate(GSAO Analogue)/Swelling Rate(GSAO)
BAE cells = test: Antiproliferative activity on BAE cells (MTT, 72 hours screen); settings: for Fold Increase: IC50(GSAO)/IC50(GSAO Analogue); for IC50: read-out: IC50 (μM)*, proliferation of BAE cells, MTT, DMEM 10% FBS

| Compound | MPTP Swelling Rate Increase/GSAO* Mean (MPTP) | times more active than the corresponding p-arsenoxide analogue (BAE cells; BAE proliferation, 4 vs 3, 22 vs 7, 23 vs 8) | Fold Increase (BAE cells) | IC50 (BAE cells) [µM] |
| --- | --- | --- | --- | --- |
| retro-HO-Cys-(CH2CONHC6H4-p-As{OH}2)-carbonyl-Glu-OH | 5.6 | approximately 140 times | 9.9 | 0.84 |
| O=C(CSCC(O)CO)Nc1ccc([As](O)O)cc1 (stereo not shown) | 1.3 |  | 1.1 | 7.6 |
